Assay results reported in patent US20180284130A1.
Values belong to the substance of their own block, whether it stands above or below them.

Legend:
[1] = target: recombinant human anti-TNP IgG1 (chimeric, TIB142 VH with human IgG1 constant region) (human); assay: ELISA; anti-TNP IgG1 on TNP-BSA, biotinylated dimer; EC50 as IgG concentration
rituximab [2] = assay: flow cytometry; Daudi cells opsonised at 10 µg/ml mAb, biotinylated dimer (FIG. 10C)
[3] = target: IgG1, Kappa from human myeloma (Sigma-Aldrich) (human); assay: ELISA; IgG1 captured by anti-human F(ab')2, biotinylated dimer; EC50 as IgG concentration
rituximab [4] = assay: flow cytometry; Daudi cells opsonised with rituximab, MFI of dimer / MFI of anti-IgG (FIG. 10E)
obinutuzumab (GAZYVA) = assay: ELISA; mAb captured by F(ab')2 anti-human F(ab')2, biotinylated dimer, streptavidin-HRP (FIG. 8B)
[5] = target: IgG2, Kappa from human myeloma (Sigma-Aldrich) (human); assay: ELISA; IgG2 captured by F(ab')2 anti-human F(ab')2, biotinylated dimer; EC50 as IgG concentration (FIG. 3G)
[6] = target: recombinant human anti-TNP IgG4 (chimeric, TIB142 VH with IgG4 constant region) (human); assay: ELISA; anti-TNP IgG4 on TNP-BSA, biotinylated dimer (FIG. 3D)
[7] = target: recombinant human anti-TNP IgG4 (chimeric, TIB142 VH with IgG4 constant region) (human); assay: ELISA; anti-TNP IgG4 on TNP-BSA, biotinylated dimer; EC50 as IgG concentration (FIG. 3L)
[8] = target: recombinant human anti-TNP IgG1 (chimeric, TIB142 VH with human IgG1 constant region) (human); assay: ELISA; anti-TNP IgG on TNP-BSA, biotinylated dimer; EC50 as IgG concentration (FIG. 3 D, L)
[9] = target: IgG1, Kappa from human myeloma (Sigma-Aldrich) (human); assay: ELISA; IgG captured by anti-human F(ab')2, biotinylated dimer; EC50 as IgG concentration (FIG. 3 C, K)
[10] = target: IgG2, Kappa from human myeloma (Sigma-Aldrich) (human); assay: as above
[11] = target: IgG1, Kappa from human myeloma (Sigma-Aldrich) (human); assay: ELISA; IgG captured by F(ab')2 anti-human F(ab')2, biotinylated dimer; EC50 as IgG concentration (FIG. 3K)
[12] = target: IgG2, Kappa from human myeloma (Sigma-Aldrich) (human); assay: as above
[13] = target: IgG3, Kappa from human myeloma (Sigma-Aldrich) (human); assay: as above
[14] = target: IgG2, Kappa from human myeloma (Sigma-Aldrich) (human); assay: ELISA; IgG captured by F(ab')2 anti-human F(ab')2, biotinylated dimer; EC50 as IgG concentration
[15] = target: IgG4, Kappa from human myeloma (Sigma-Aldrich) (human); assay: as above
[16] = target: IgG1, Kappa from human myeloma (Sigma-Aldrich) (human); assay: ELISA; IgG captured by F(ab')2 anti-human F(ab')2, biotinylated dimer; EC50 as IgG concentration (FIG. 3E)
[17] = target: IgG3, Kappa from human myeloma (Sigma-Aldrich) (human); assay: as above

EC50 [1]: 0.17 µg/mL
level of binding relative to obinutuzumab opsonised cells (rituximab [2]): 2 fold
EC50 [3]: 0.26 µg/mL
relative stoichiometry of FcR/IgG at 10 µg/ml relative to 0.1 µg/ml (rituximab [4]): 5 fold
level of binding relative to rituximab (obinutuzumab (GAZYVA)): 2 fold
EC50 [5]: 0.62 µg/mL
Substance: Human rsFcγRIIIa V158 dimer (receptor)

signal relative to the anti-human F(ab')2:IgG4 IC [6]: 6 fold
EC50 [7]: 2 µg/mL
EC50 [8]: 0.4 µg/mL
EC50 [9]: 0.28 µg/mL
EC50 [10]: 0.19 µg/mL
EC50 [11]: 0.398 µg/mL
EC50 [12]: 0.302 µg/mL
EC50 [13]: 0.134 µg/mL
Substance: Human rsFcγRIIa H131 dimer (from UniProt P12318 34-215) (receptor)

EC50 [1]: 0.57 µg/mL
EC50 [3]: 0.54 µg/mL
Substance: Human rsFcγRIIIa F158 dimer (receptor)

EC50 [14]: 6 µg/mL
EC50 [15]: 3 µg/mL
EC50 [16]: 0.17 µg/mL
EC50 [17]: 0.44 µg/mL
Substance: Human rsFcγRIIa R131 dimer (from UniProt P12318 36-215) (receptor)
